Positions count from the first letter of the chain named. Entries after “also recorded” stand apart in the source; their conditions may differ.
B1: Mab 2F11: murine monoclonal anti-CSF-1R antibody; heavy chain variable domain SEQ ID NO: 7, light chain variable domain SEQ ID NO: 8 (antibody, listed as Mus musculus, V domains shown)
VH: QVQLKESGPGLVAPSQSLSITCTVSGFSLTTYDISWIRQSPGKGLEWLGVIWTDGGTNYNSPFMSRLSIRKDNSKSQVFLKMNRLQTDDTAIYYCVRDQRLYFDVWGAGTTVTVSS
VL: NIVMTQSPKSMSMSVGERVTLNCKASEDVNTYVSWYQQQPEQSPKLLIYGASNRYTGVPDRFTGGGSTTDFTLTISSVQAEDLADYFCGQSFSYPTFGTGTKLEIK
B2: Mab 2E10: murine monoclonal anti-CSF-1R antibody; heavy chain variable domain SEQ ID NO: 15, light chain variable domain SEQ ID NO: 16 (antibody, listed as Mus musculus, V domains shown)
VH: QVQLKESGPGLVAPSKSLSITCTVSGSSLDSFDISWIRQSPGKGLEWLGVIWTGGGTNYNSGFMSRLRITKDNSKSQVLLKMNSLQSDDTAIYYCVRDPRLYFDVWGAGTTVTVSS
VL: B1 VL with N22S, N30V, Q39K, E41D, G65S, T68A, F87Y, S91T
B3: Mab 1G10: murine monoclonal anti-CSF-1R antibody; heavy chain variable domain SEQ ID NO: 75, light chain variable domain SEQ ID NO: 76 (antibody, listed as Mus musculus, V domains shown)
VH: B1 VH with Q1R, T31S, T53S, D54G, S68R, R70S, N73D, K75R, M82V, Q99L
VL: KIVMTQSPKSMSVSVGERVSLSCKASEDVGTYVSWYQQKPEQSPKLLIYGSSNRYTGVPDRFTGSGSATDFTLTISSVQAEDLADYSCGQSFTYPTFGTGTKLEIK
B4: Mab 2H7: murine monoclonal anti-CSF-1R antibody; heavy chain variable domain SEQ ID NO: 83, light chain variable domain SEQ ID NO: 84 (antibody, listed as Mus musculus, V domains shown)
VH: B2 VH with S40P, T70S, L79F, N83S
VL: B1 VL with N22S, N30V, Q39K, G65S, T68A, V78I, F87Y, S91T

Chains of the proteins cited; added tags and fusions are not shown. A line that says so, or that is headed by a name, gives the form on record, which may keep a tag or linker. Residues count along the entry.
UniProt P07333, 20-512: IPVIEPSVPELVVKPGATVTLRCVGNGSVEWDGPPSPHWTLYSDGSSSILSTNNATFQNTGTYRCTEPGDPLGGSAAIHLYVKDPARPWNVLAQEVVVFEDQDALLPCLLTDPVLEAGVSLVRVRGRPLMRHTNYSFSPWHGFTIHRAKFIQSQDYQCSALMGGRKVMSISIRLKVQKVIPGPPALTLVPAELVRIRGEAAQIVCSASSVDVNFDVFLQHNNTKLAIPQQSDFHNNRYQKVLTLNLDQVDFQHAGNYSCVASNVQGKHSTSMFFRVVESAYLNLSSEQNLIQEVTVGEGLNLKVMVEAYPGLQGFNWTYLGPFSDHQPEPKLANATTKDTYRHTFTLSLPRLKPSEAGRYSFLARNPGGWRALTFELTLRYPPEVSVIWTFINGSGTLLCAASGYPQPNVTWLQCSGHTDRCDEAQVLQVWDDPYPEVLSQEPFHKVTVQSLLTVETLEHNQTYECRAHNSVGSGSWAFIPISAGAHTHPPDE
UniProt P07333, 20-311: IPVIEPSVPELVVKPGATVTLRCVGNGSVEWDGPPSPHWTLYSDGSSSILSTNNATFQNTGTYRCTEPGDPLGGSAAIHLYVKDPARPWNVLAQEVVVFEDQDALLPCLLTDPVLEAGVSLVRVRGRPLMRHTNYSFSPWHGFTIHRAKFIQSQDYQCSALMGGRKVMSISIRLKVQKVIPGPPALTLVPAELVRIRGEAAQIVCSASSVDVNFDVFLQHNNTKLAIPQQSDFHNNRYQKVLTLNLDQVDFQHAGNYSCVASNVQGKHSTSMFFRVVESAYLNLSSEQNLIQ
UniProt P07333, with tags, fused parts or gaps DEL295-399: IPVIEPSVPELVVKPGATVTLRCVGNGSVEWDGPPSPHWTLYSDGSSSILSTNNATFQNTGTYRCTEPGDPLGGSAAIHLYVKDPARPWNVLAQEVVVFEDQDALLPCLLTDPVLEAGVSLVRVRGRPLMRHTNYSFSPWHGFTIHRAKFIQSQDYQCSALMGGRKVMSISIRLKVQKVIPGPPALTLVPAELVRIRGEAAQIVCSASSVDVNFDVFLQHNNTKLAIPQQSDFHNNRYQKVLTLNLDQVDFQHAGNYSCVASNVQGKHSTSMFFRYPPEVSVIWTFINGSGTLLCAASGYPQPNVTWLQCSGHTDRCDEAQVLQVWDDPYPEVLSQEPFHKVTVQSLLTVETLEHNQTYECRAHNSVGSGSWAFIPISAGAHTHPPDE

Biological target: T1, human CSF-1R Extracellular Domain (CSF-1R-ECD) (Homo sapiens, UniProt P07333)
T1 construct: PreScission site + human IgG1 Fc (aa100-330) + 6xHis (C); made in house; host or cells: Hek293 FreeStyle suspension cells, transient transfection
Test: SPR binding of anti-CSF-1R antibodies to immobilized human CSF-1R Extracellular Domain
Settings: Biacore, immobilized CSF-1R-ECD
Experimental: (§1) The “binding to human CSF-1R fragment delD4 (SEQ ID NO: 65) and to human CSF-1R Extracellular Domain (SEQ ID NO: 64)” as used herein is measured by a Surface Plasmon Resonance assay (Biacore assay) as described in Example 4. The human CSF-1R fragment delD4 (SEQ ID NO: 65) or human CSF-1R Extracellular Domain (SEQ ID NO: 64), respectively, are captured to the surface (each to a separate surface) and the test antibodies were added (each in a separate measurement) and the respective binding signals (Response Units (RU)) were determined. Reference signals (blank surface) were subtracted. If signals of nonbinding test antibodies were slightly below 0 the values were set as 0. Then the ratio of the respective binding signals (binding signal (RU) to human CSF-1R fragment delD4/binding signal (RU) to human CSF-1R Extracellular Domain (CSF-1R-ECD)) is determined. The antibodies according to the invention have a ratio of the binding signals (RU(delD4)/RU(CSF-1R-ECD) of 1:50 or lower, preferably of 1:100 or lower (the lower included end is 0 (e.g. if the RU is 0, then the ratio is 0:50 or 0:100)).
(§2) Determination of the Binding of Anti-CSF-1R Antibodies to Human CSF-1R Fragment delD4 and to Human CSF-1R Extracellular Domain (CSF-1R-ECD) (Binding Signals as Response Units (RU):
(§3) Instrument: Biacore T100 (GE Healthcare)
(§4) Software: • T100 Control, Version 2.0.1 • T100 Evaluation, Version 2.0.2 Assay format Chip: CM5 Temperature: 25° C.
(§5) CSF-1R fragments were immobilized via amine coupling. To compare the binding of different anti-CSF-1R antibodies according to the invention one concentration of the test antibody was injected. Anti CSF-1R Mab3291 (R&D-Systems) and SC 2-4A5 (Santa Cruz Biotechnology, US—see also Sherr, C. J. et al., Blood 73 (1989) 1786-1793), was used as reference control, anti-CCR5 m<CCR5>Pz03.1C5 (deposited as DSM ACC 2683 on 18 Aug. 2004 at DSMZ) as negative control, all under the same conditions as the anti-CSF-1R antibodies according to the invention.
(§6) Standard amine coupling according to the manufacturer's instructions: running buffer: PBS-T (Roche: 11 666 789+0.05% Tween20: 11 332 465), activation by mixture of EDC/NHS, injection of human CSF-1R fragment delD4 (comprising the extracellular subdomains D1-D3 and D5) (SEQ ID NO: 65) and human CSF-1R Extracellular Domain (CSF-1R-ECD) (comprising the extracellular subdomains D1-D5) (SEQ ID NO: 64) for 600 seconds at flow rate 10 μl/min; diluted in coupling buffer NaAc, pH 5.0, c=10 μg/mL; finally remaining activated carboxyl groups were blocked by injection of 1 M Ethanolamin.
(§7) Binding was measured at a flow rate of 30 μL/min by one injection of the analyte with concentration c=10 nM. […]
(§8) Signals were measured by a report point 10 seconds after end of injection.

Molecule | binding to CSF-1R-ECD
B1 | showed binding
B2 | showed binding
B3 | showed binding
B4 | showed binding

Biological target: T2, human CSF-1R fragment D1-D3 (Homo sapiens, UniProt P07333)
T2 construct: His-Avitag; made in house
Test: SPR binding of anti-CSF-1R antibodies to human CSF-1R fragment D1-D3
Settings: not given
Experimental: The term “binding to human CSF-1R fragment D1-D3” refers to a binding affinity determination by a Surface Plasmon Resonance assay (Biacore assay). The test antibody is captured to the surface and the human CSF-1R fragment D1-D3 (SEQ ID NO: 66) was added and the respective binding affinities were determined.
as §3
Software: • T100 Control, Version 1.1.11 • B3000 Evaluation, Version 4.01 • Scrubber, Version 2.0a Assay format Chip: CM5-Chip Antibodies against CSF-1R were captured via amine coupled capture molecules. Using the single cycle kinetics five increasing concentrations of human CSF-1R fragment D1-D3 (SEQ ID NO: 66) were injected. Human CSF-1R fragment D1-D3 was subcloned into pCMV-presS-HisAvitag expression vector.
Anti CSF-1R SC 2-4A5 (Santa Cruz Biotechnology, US; Sherr, C. J. et al., Blood 73 (1989) 1786-1793) which inhibits the ligand-receptor interaction, and Mab 3291 (R&D-Systems) were used as reference controls.
Capture molecules: Anti mouse Fcγ antibodies (from goat, Jackson Immuno Research JIR115-005-071) for antibodies according to the invention and the R&D-Systems control Mab 3291 and Anti rat Fcγ antibodies (from goat, Jackson Immuno Research JIR112-005-071) for the reference control anti CSF-1R SC 2-4A5.
Standard amine coupling according to the manufacturer's instructions: running buffer: HBS—N buffer, activation by mixture of EDC/NHS, aim for ligand density of 2000 RU; the capture-Abs were diluted in coupling buffer NaAc, pH 4.5, c=10 mg/mL; finally remaining activated carboxyl groups were blocked by injection of 1 M Ethanolamin. […]
Single Cycle Kinetics was measured at a flow rate of 30 μL/min by five consecutive injections of the analyte with concentrations, c=7.8, 31.25, 125, 500 and 2000 nM, without regeneration. […]
Kinetic parameters were calculated by using the usual double referencing (control reference: binding of analyte to capture molecule; Flow Cell: subdomain CSF-1R concentration “0” as Blank) and calculation with model ‘titration kinetics 1:1 binding with draft’.

Molecule | binding to human CSF-1R fragment D1-D3
B1 | showed no binding
B2 | showed no binding
B3 | showed no binding

Biological target: T1, human CSF-1R Extracellular Domain (CSF-1R-ECD)
Test: SPR binding affinity of anti-CSF-1R antibodies to human CSF-1R
Settings: SPR 35° C.
Experimental: Instrument: BIACORE® A100
Human CSF-1R Extracellular Domain (CSF-1R-ECD) (comprising the extracellular subdomains D1-D5) (SEQ ID NO: 64) (R&D-Systems 329-MR or subcloned pCMV-presS-HisAvitag-hCSF-1R-ECD) was added in various concentrations in solution. Association was measured by an CSF-1R-injection of 1.5 minutes at 35° C.; dissociation was measured by washing the chip surface with buffer for 10 minutes at 35° C. For calculation of kinetic parameters the Langmuir 1:1 model was used.

Molecule | ka | kd
B1 | 177000 M⁻¹ s⁻¹ | 5.18e-05 s⁻¹
B2 | 152000 M⁻¹ s⁻¹ | 2.97e-05 s⁻¹
B3 | 175000 M⁻¹ s⁻¹ | 6.28e-05 s⁻¹
B4 | 147000 M⁻¹ s⁻¹ | 3.12e-05 s⁻¹

Biological target: T3, human CSF-1R fragment delD4 (Homo sapiens, UniProt P07333, DEL295-399)
T3 construct: PreScission site + human IgG1 Fc (aa100-330) + 6xHis (C, cleaved yes); made in house; host or cells: Hek293 FreeStyle suspension cells, transient transfection
Test: SPR binding of anti-CSF-1R antibodies to immobilized human CSF-1R fragment delD4
Settings: Biacore
Experimental: as §1, §2, §3, §4, §5, §6, §7, §8

Molecule | binding to CSF-1R fragment delD4
B1 | no binding was detected; also recorded: do not bind; also recorded: did not bind
B2 | no binding was detected; also recorded: do not bind; also recorded: did not bind
B3 | no binding was detected; also recorded: did not bind
B4 | no binding was detected; also recorded: did not bind

Source: patent publication US9192667B2, “Method of treating cancer by administering CSF-1R antibodies and a TLR9 agonist” (Hoffmann-La Roche Inc., priority 2013, dated 2015)
